# scFv variants of Ab-91 (heavy chain) against a SARS-CoV-2 spike peptide

From the AlphaSeq antibody data of Engelhart et al. 2022 (doi:10.1038/s41597-022-01779-4), copy in the FLAb collection.

Binding partner: SARS-CoV-2 spike HR2 peptide, sequence PDVDLGDISGINAS.

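The parent was found by panning a naive human phage display library on the peptide. In library AAYL51, one, two or three CDR residues were substituted; doubles and triples were drawn at random. In AlphaSeq, yeast of one mating type display the scFv and yeast of the other type display the target. The frequency of each diploid, read from paired DNA barcodes, reflects how well the two displayed proteins bind. Each replicate has its own calibration line, from reference interactions of the BCL2 family. There are three technical replicates.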

The variants keep the light chain, the linker and the frameworks of Ab-91 (scFv order VL, a (GGGGS)3 linker, VH).
VL: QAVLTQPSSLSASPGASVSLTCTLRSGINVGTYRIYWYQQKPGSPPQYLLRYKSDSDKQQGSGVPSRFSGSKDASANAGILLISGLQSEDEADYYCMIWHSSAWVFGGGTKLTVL
VH: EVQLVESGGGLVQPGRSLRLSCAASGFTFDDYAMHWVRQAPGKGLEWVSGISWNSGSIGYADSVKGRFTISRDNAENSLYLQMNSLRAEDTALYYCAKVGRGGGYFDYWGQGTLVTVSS

The parent's heavy chain CDRs are GFTFDDYAMH, GISWNSGSIGYADSVK, VGRGGGYFDY; each variant's own CDRs replace them letter for letter. Values are log10 of the apparent Kd in nM; lower means stronger binding. "ND" means that the variant was in the library but no mating with the target was seen in that replicate; the authors take this as a sign of poor binding, and no number exists. Three control strains display no target. For library AAYL51, 21% of the pairings with them gave a signal, with a median of 4.54 and one signal in twenty below 3.26, so weak values seen in few replicates may be background. Also given: how often the same scFv was detected with the empty control strains, with their mean in brackets. In this assay the parent's reference entry averaged 1.86; its copy inside this library read 0.88.

CDR-H1,CDR-H2,CDR-H3,log10 Kd (nM) by replicate,empty controls
GFTFRDYAMH,GISWNSGSIGYADSVK,VGRGSGYFDY,ND / ND / ND,0/9
GFTRDDYAMH,GISWFSGSIGYVDSVK,VGRGGGYFDY,ND / ND / ND,0/9
EFTFDDYVMH,GISWNSGSIGYAFSVK,VGRGGGYFDY,ND / ND / ND,0/9
GFTFHDAAMH,GISWNPGSIGYADSVK,VGRGGGYFDY,2.85 / 3.09 / 2.72,5/9 (4.49)
GFTFDDYAMH,GISWNSGSIGHADSVK,VRRGLGYFDY,4.48 / ND / ND,6/9 (4.47)
GFVFGDYAMH,GISWNSGSIGYADSVK,VGRGGGYFDY,3.74 / 4.63 / ND,2/9 (3.72)
GFTFDHAAMH,GISWNSGSIGYADMVK,VGRGGGYFDY,1.12 / 1.37 / 1.04,4/9 (4.19)
GFTFDDYAMH,GISWNSGSIGYADSVK,VVVGGGYFDL,ND / 4.62 / ND,3/9 (4.75)
GFTFDDYAMH,GIKWNSGSIGYADSVK,VGRGGKYFDY,ND / ND / ND,1/9 (4.89)
GFTVFDYAMH,GISWNSLSIGYADSVK,VGRGGGYFDY,5.60 / 3.53 / 3.13,1/9 (3.58)
GFTFDDYAMN,GISWNSGSIGYADSWK,VGRGGGYFDM,3.82 / ND / ND,0/9
GFTEDDYAMH,GISWNSGSIGYADYVK,VGRFGGYFDY,3.98 / 5.14 / 3.35,2/9 (4.98)
GFTFDDRAMH,GISWNSGSVGYADSVK,VGRRGGYFDY,ND / ND / ND,0/9
GFTFRDYAMH,GISWNSGSIGYADSVK,VGRGFGCFDY,ND / ND / ND,0/9
RATFDDYAMH,GISWNSGSIGYADSVK,VGRGGGYFDY,ND / ND / 3.51,1/9 (2.88)
GFTFDDYAHH,GISWNSGSIGYADCVK,VGRGGGYFIY,4.04 / ND / ND,3/9 (3.73)
GFTFDDYAMH,GISWNIGSIGYADYVK,VGRGGGHFDY,ND / ND / ND,0/9
GFTFDDYAMH,GISWNSGSIGYAMSVR,VGRGGGYFDT,2.37 / 2.12 / 1.90,0/9
GFTFDSYAMH,GISWNSGEIGYADSVK,VGRGGGYFDY,2.85 / 2.96 / ND,2/9 (3.84)
GFTFDDTAMT,GISMNSGSIGYADSVK,VGRGGGYFDY,4.28 / 5.21 / 3.97,7/9 (4.27)
GFTFDDYAQH,GISWNKGSIGYADSVK,VGRGQGYFDY,ND / ND / ND,0/9
GFTFDDYAMN,GISWNSGSIGYADSVK,VGRGGQDFDY,4.55 / 4.92 / 5.08,5/9 (5.05)
GFTFDDYAMH,GISWNSLSIGYVDSVK,VGRGGRYFDY,ND / ND / ND,3/9 (3.83)
GFTFDDYTMH,GIRWNSGSCGYADSVK,VGRGGGYFDY,ND / 4.05 / ND,2/9 (4.25)
GFNFDDYAWH,GISWNSGSIVYADSVK,VGRGGGYFDY,5.25 / ND / ND,5/9 (5.38)
GFTFDDYAMH,DISWNSHSIGYADSVK,FGRGGGYFDY,ND / ND / ND,6/9 (4.09)
GPTFDDGAMH,GISWNSGSIGYADSVK,VGRGGGYFDY,5.16 / ND / ND,0/9
GFTFDDYAMH,GIYWNSGSIGYYDSVK,VGRGGCYFDY,ND / ND / ND,1/9 (4.64)
GFTFDDYAMH,GISWNSGSIGYADSDK,VMRGGGYFEY,ND / ND / ND,1/9 (4.00)
GFTFDDYIMH,GISWNSDIIGYADSVK,VGRGGGYFDY,4.77 / 4.03 / 5.81,5/9 (4.66)
GFTFDDYAMH,GIRWNSRSIGYADSVK,VGRGGGFFDY,ND / ND / 4.29,1/9 (3.28)
GFTFDDYAMH,GISWNSGSIGYADSVK,VGYGGGYMDY,ND / ND / ND,2/9 (3.78)
GFTFCDYAMH,LISWNSGSIGYADSVK,VGRGGGYFDD,ND / ND / ND,0/9
GATFDDYAMH,GISWNSGSIGYADGVK,VGRGGGYFLY,ND / 5.14 / 4.37,4/9 (4.61)
GFTFGDYDMH,GISWNSGKIGYADSVK,VGRGGGYFDY,ND / ND / ND,0/9
GFFFDDYAMH,GISWNSGSIGYADSVK,VGRGGGYFMY,4.57 / 5.26 / ND,4/9 (4.33)
GITFDDYAMH,GISWNSGSIGYADSVK,VGRGGGYFDY,4.27 / 3.27 / 3.90,1/9 (4.21)
GFTFDDYAMH,GISGNSGSIGYANSVL,VGRGGGYFDY,2.49 / 2.25 / 2.18,1/9 (4.41)
GFTFDKYAMH,GISWNSGCIGYADSEK,VGRGGGYFDY,3.91 / ND / ND,1/9 (5.27)
GFTFDDYAMH,GISWNSGSIGYRDSVK,VGRGGGTFDS,ND / ND / ND,2/9 (5.02)
GFTFDDYAMH,GISWCSGSIGYADSVK,VGRMGGYFDY,ND / 3.72 / ND,5/9 (4.32)
VFMFDDYAMH,GISWNSGSIGYADSVK,VGRGGGYFSY,4.65 / ND / ND,4/9 (4.54)
GFTFDDYHMH,GISSNSGSFGYADSVK,VGRGGGYFDY,ND / ND / ND,1/9 (4.21)
GFTFDDGAMH,GISWNSGSIGYADCVK,VGRGGGHFDY,4.28 / ND / ND,3/9 (3.70)
GFTFDDYAGP,GISWNSGSIGYADSVK,VGRKGGYFDY,ND / 4.62 / ND,1/9 (3.18)
GFTFDDYAGH,GISWNRGSIGYAISVK,VGRGGGYFDY,ND / 5.53 / 5.24,2/9 (4.89)
SFTFDDYAMH,GISWNSGSIGYADGVK,RGRGGGYFDY,ND / 5.11 / 3.69,1/9 (4.44)
GFTFDDYAMA,GISWNSGNIGYADSDK,VGRGGGYFDY,ND / ND / ND,0/9
GFTFADYAMH,GISWNSGSIGYADSVK,VGREGGVFDY,2.00 / 2.14 / 4.03,0/9
GFTFDDYAMH,GISWNSGSIGWADSVK,VGRHGGYFDY,ND / ND / ND,0/9

Excerpt, the final 4 entries:

CDR-H1,CDR-H2,CDR-H3,log10 Kd (nM) by replicate,empty controls
SFTFDDYAMH,GISWNSGSIGYADGVK,RGRGGGYFDY,ND / 5.11 / 3.69,1/9 (4.44)
GFTFDDYAMA,GISWNSGNIGYADSDK,VGRGGGYFDY,ND / ND / ND,0/9
GFTFADYAMH,GISWNSGSIGYADSVK,VGREGGVFDY,2.00 / 2.14 / 4.03,0/9
GFTFDDYAMH,GISWNSGSIGWADSVK,VGRHGGYFDY,ND / ND / ND,0/9